Values of other authors in patent US5104858A, “Sensitizing multidrug resistant cells to antitumor agents” (priority 1988, dated 1992).
“Also recorded” adds a separate entry of the source.

System: dopamine receptors
Details: cited from earlier work

In the case of `OCCN1CCN(CC/C=C2\c3ccccc3Sc3ccc(C(F)(F)F)cc32)CC1` [trans-Flupenthixol], the dopamine antagonism is listed as “far less potent dopamine antagonist; also recorded: virtually no activity as a dopamine antagonist”.
